PMC6314990, “∆^9-Tetrahydrocannabinol, a major marijuana component, enhances the anesthetic effect of pentobarbital through the CB1 receptor” (Forensic Toxicology, 2018)

Tested on: pentobarbital-induced sleep in mice
Test: Cannabinoid-induced potentiation of pentobarbital-induced sleep and effect of CB1 receptor antagonists
Format: in vivo, ddY mice
Conditions: pentobarbital 40 mg/kg i.p.
Procedure: For the pharmacological studies, cannabinoids and antagonists were suspended in saline containing 1% Tween 80. Sodium pentobarbital was dissolved in saline and injected intraperitoneally (i.p.; 40 mg/kg) for the mice. Male ddY mice weighing 20–25 g were housed in groups of 8. All animals were kept in a temperature-controlled (25 °C) environment with a 12-h light–dark cycle (lights on at 7:00 a.m.) and received food and water ad libitum. […] One percent Tween 80-saline solution was injected instead of cannabinoids or antagonists for the vehicle treated group as a control.

For `Cc1c(C(=O)NN2CCCCC2)nn(-c2ccc(Cl)cc2Cl)c1-c1ccc(Cl)cc1` [SR141716A, N-(piperidin-1-yl)-5-(4-chlorophenyl)-1-(2,4-dichlorophenyl)-4-methyl-1H-pyrazole-3-carboxamide], the “Effect of antagonist pretreatment on CBD-enhanced pentobarbital-induced sleep” value (SR141716A 2 or 5 mg/kg i.v. 10 min before CBD 10 mg/kg i.v.) was “not inhibited; also recorded: failed to inhibit”, the “Effect of antagonist on potentiating effect of ∆9-THC on pentobarbital-induced sleep, low dose” value (antagonist 2 mg/kg i.v., ∆9-THC 10 mg/kg i.v.) was “attenuated” and the “Effect of antagonist pretreatment on potentiation of pentobarbital-induced sleep by ∆9-THC” value (antagonist 2–10 mg/kg i.v. 10 min before ∆9-THC 10 mg/kg i.v.) was “decreased dose-dependently”. The “Effect of antagonist alone (antagonist + Veh) on pentobarbital-induced sleeping time” value (without ∆9-THC) was “no change in pentobarbital-induced sleeping time”.

“Also recorded” adds a separate entry of the source.
